From publication PMC12009342 (Communications Biology, 2025)

Target: T1, recombinant human EGFR (extracellular domain with C-terminal 6-His tag) (Homo sapiens, UniProt P00533)
T1 construct: also called recombinant monomeric EGFR; source: ExpiCHO, transient transfection, purified (HisTrap Excel, Sephacryl S-200 SEC); not shown: His6, C-terminal, kept
Assay: BLI; BLItz; His-tagged antigen captured on Anti-Penta-HIS (HIS1K) biosensor at 25 ng/µL for 300 s; Fab in solution at 4 concentrations; association 180 s, dissociation 300 s in PBS
Details: both partners purified

B1: NC-Cow1 Fab ulCDR-swap variant var3 (ulCDR of 60E11) (Fab)
VH: QVQLRESGPSLMKPSQTLSLTCTVSGSSLNDKSVGWVRQAPGKALQWLGSVDTSGNTDYNPGLKSRLSITKDNSKSRISLTVTGMTTEDSATYYCITVHQRTRKTCPDGWRDGSDCPYGHRCGDYDCCGYGCYDGRGTNRFTGVVESYTYEWYVDAWGQGLLVTVSS
VL: SYELTQPSSVSGSLGQRVSVTCSGSSSNVGNGYVSWYQLIPGSAPRTIIYGDTSRASGVPERFSGSRSGNTATLTISSLQAEDEADFFCASPDDSSSNAVFGSGTTLTVL
Work on B1 yielded a Kd of 14 nM.

B2: NC-Cow1 Fab ulCDR-swap variant var4 (ulCDR of 60H05) (Fab)
VH: QVQLRESGPSLMKPSQTLSLTCTVSGSSLNDKSVGWVRQAPGKALQWLGSVDTSGNTDYNPGLKSRLSITKDNSKSRISLTVTGMTTEDSATYYCITVHQKTNKLKSCPDGYTSGVECRFRGYTCANDGCWRVCSFTTCSGWMPASDTYRYEYHVDAWGQGLLVTVSS
VL: B1 VL
With B2 the Kd was 43 nM.
